This note sets out measurements from ChEMBL document CHEMBL1138075, “The neuroprotective activity of GPE tripeptide analogues does not correlate with glutamate receptor binding affinity” (Bioorg Med Chem Lett, 2006).

For this experiment, the target named is Glutamate NMDA receptor. As to the kind of experiment: Displacement of L[3H]glutamate from GluR in rat brain synaptic membrane. Type of experiment: cell membranes. In a few lines:
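Competitive radioligand binding to glutamate receptors: displacement of L-[³H]glutamate from rat brain synaptic membranes, with test concentrations up to 100 μM.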

`C[C@@]1(C(=O)N[C@@H](CCC(=O)O)C(=O)O)CCCN1C(=O)CN` (stereo in doubt; 7) [TROFINETIDE]: the Ki (usually a dissociation constant, usually derived from enzyme kinetics or from competition with a known ligand) came to 7.96 µM.
